Hits are enriched below; roughly 3.7% of the tested compounds scored in any of these assays.
Nrf2 activator: Nrf2 pathway activation; Potency, µM (series often up to 46.1 µM), actives largely listed as activators; actives 0.31% (n = 410,000); AREc32 ARE-luciferase reporter (MCF7-derived line), luminescence, 24 h; note: nearly all actives have a fitted effect of over 65% in size
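For detection, Steady-Glo was added and plates sat 30 min at RT; before that, AREc32_Fluc cells grown overnight in OPTI-MEM/5% FBS had been treated with 23 nL compound for 24 hr at 37 deg C.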
A549 viability: A549 cytotoxicity, counter-screen for Nrf2 inhibitors | A549 ARE-Fluc cells, CellTiter-Fluor viability, 18-24 h | Potency, µM (doses to about 46 µM), actives largely listed as inhibitors | actives 0.16% (n = 390,000) | AID 504648
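Cytotoxicity counterscreen: CellTiter-Fluor fluorescence was measured in A549 ARE_Fluc cells after 18-24 h of compound exposure in a concentration series. The subsequent BugLite luminescent read reports ARE-luciferase activity.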
miR-21 FLuc: miR-21 reporter, rising signal. HeLa miR-21 FLuc reporter, luciferase, 48 h. Potency, µM (titrated, usually from 38.3 µM). 340,000 tested, under 10 active. AID 2288; active = well fitted rising curve with a large enough effect; inconclusive = small, poorly fitted or top-dose-only effect; inactive = no such curve, though single readings can be large or run the other way;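 also: miR-21 action dims this reporter so a rising signal means less miR-21 action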
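Using DMEM plus 10% FBS, HeLa miR-21-FLuc cells are incubated with test compounds (final up to about 40uM) for 48 hours; firefly luciferase signal is then imaged following reagent-mediated lysis.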
Nrf2 inh: inhibitors of Nrf2 signaling. actives 2.1% (n = 360,000). A549 ARE-Fluc reporter, luciferase luminescence, 18-24 h. Potency, µM (highest dose often 46 µM), actives largely listed as inhibitors. AID 504444; note: nearly all actives have a fitted effect of over 60% in size
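Nrf2 function is reported as luminescence of an ARE-controlled luciferase in A549 cells. Compounds were tested at several concentrations, and a CellTiter-Fluor read on the same wells flagged cytotoxicity.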
ClpP mod: qHTS Assay for Activators of ClpP; Potency, µM (titrated, usually from 57.5 µM); AID 651965, 2013; ATP-dependent Clp protease proteolytic subunit (Bacillus subtilis (strain 168)), P80244; actives 1.9% (n = 340,000); purified B. subtilis ClpP, FRET peptide cleavage, 20 min; active = well fitted falling curve with a large enough effect; inconclusive = small, poorly fitted or top-dose-only effect; inactive = no such curve, though single readings can be large or run the other way; note: the source files actives as falling curves though it sought activators and does not explain the sign; nearly all actives have a fitted effect of over 65% in size
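Buffer: 100 mM Tris/HCl pH8, 100 mM KCl, 0.05% low protease BSA, 2.5% glycerol, 0.01% Tween-20. ClpP 10 microg/mL final; 20 min RT; delta FRET normalized to ADEP and DMSO controls.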
IL2 activator: activates IL-2 in a cell-based reporter assay; IL-2 activation reporter assay, cell-based qHTS; stimulated with anti-CD3/CD4/CD28 beads; in transgenic mouse T cells; activation, % (series mostly up to about 46 µM); actives 0.065% (n = 360,000); in the data active = activation above about 50%; inconclusive = mostly about 30% to 49%
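First, unstimulated transgenic mouse T cells were exposed to compound for 60 min. Next, anti-CD3/anti-CD4-coated beads with anti-CD28 were added. Finally, after 18 h at 37 degrees C, EGFP and DsRed were imaged.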
A number is an active result; - = inactive; ? = inconclusive; . = no result. Unless noted, calls come from the whole dose curve; as a rule, active = well fitted curve in the direction sought with a large enough effect; inconclusive = small, poorly fitted or top-dose-only effect, or another doubt; inactive = no such curve, though single readings can be large; an effect the other way counts as inactive or inconclusive.

SMILES	Nrf2 activator	A549 viability	miR-21 FLuc	Nrf2 inh	ClpP mod	IL2 activator
Cn1nnc2c(N3CCN(c4cccc(Cl)c4)CC3)ncnc21	-	-	-	.	?	.
C1=C(c2ccccc2)Nc2ncnn2C1c1ccccc1 (centres undefined)	7.1µM	-	.	-	-	-
Fc1ccc(Br)cc1C1C=C(c2ccc(Br)cc2)Nc2ncnn21 (centres undefined)	-	?	-	.	-	-
Cc1ccc(C2=CC(c3ccccc3)n3ncnc3N2)cc1 (centres undefined)	-	-	.	-	-	-
CN(C)c1ccc(C2C=C(c3ccc(Cl)cc3OC(F)F)Nc3ncnn32)cc1 (centres undefined)	-	-	-	-	-	-
Cc1ccsc1C1C=C(c2cccc(Br)c2)Nc2ncnn21 (centres undefined)	7.9µM	-	-	-	?	-
CCc1ccc(C2=CC(c3cc(Br)ccc3F)n3ncnc3N2)cc1 (centres undefined)	-	?	-	.	32µM	-
Cc1ccc(C2C=C(c3ccccc3OC(F)F)Nc3ncnn32)cc1 (centres undefined)	-	-	-	-	22µM	-
COc1cccc(C2c3c(ncn(-c4cccc(C)c4)c3=N)Oc3ccc4ccccc4c32)c1 (centres undefined)	.	-	.	-	.	.
COc1cc(NC(=O)CC(C)S(=O)(=O)c2ccc3c(c2)CCN3C(C)=O)cc(OC)c1OC (centres undefined)	-	-	-	-	-	.
Cn1nnnc1SCCCNCc1cccc(OCc2ccccc2)c1	-	-	-	-	-	.
CCCCN(CCCNC(=O)CN1N=C(c2ccc(C)cc2)CCC1=O)c1ccccc1	-	-	-	.	-	.
CC(=O)Nc1nc2n(n1)C(c1ccccc1)C=C(c1ccccc1)N2 (centres undefined)	-	?	-	-	28µM	-
COc1ccc(C2C=C(c3ccccc3)Nc3nc(NS(=O)(=O)c4ccc(C)cc4)nn32)cc1 (centres undefined)	-	-	-	18µM	?	.
CC(=O)Nc1nc2n(n1)C(c1ccc(Cl)cc1)C=C(C)N2 (centres undefined)	-	-	-	-	3.2µM	-
CS(=O)(=O)Nc1nc2n(n1)C(c1ccccc1)C=C(c1ccc(Br)cc1)N2 (centres undefined)	-	?	-	-	8.9µM	-
CC1=CC(c2ccc(Cl)cc2)n2nc(NC(=O)c3ccccc3)nc2N1 (centres undefined)	-	-	-	-	?	-
Cc1ccc(C2C=C(c3ccccc3)Nc3nc(NS(=O)(=O)c4ccc(C)cc4)nn32)cc1 (centres undefined)	-	-	-	.	-	.
O=C(Oc1ccc(F)cc1)c1nc(SCc2ccc(F)cc2)ncc1Cl	-	-	-	-	-	.
Cc1cccc(NC(=O)c2ccc3c(O)c(S(=O)(=O)c4ccccc4)c(=O)[nH]c3c2)c1C	-	-	-	-	?	.
COc1ccc(NC(=O)C2CCN(S(=O)(=O)c3ccc4c(c3)CCCC(=O)N4)CC2)cc1Cl	-	-	-	-	-	.
COc1ccc(NC(=O)Nc2cc3oc4ccccc4c3cc2OC)cc1	-	-	-	-	-	-
COc1cc2c(cc1NC(=O)c1cc(-c3cccnc3)nc3ccc(C)cc13)oc1ccccc12	-	-	-	.	20µM	-
COc1cc2c(cc1NC(=O)Nc1ccc(C)cc1)oc1ccccc12	-	-	-	-	35µM	-
COc1cc2c(cc1NC(=O)Nc1cccc(C)c1)oc1ccccc12	-	-	-	?	28µM	-
COc1cc2c(cc1NC(=S)Nc1cccc(C)c1)oc1ccccc12	-	-	-	.	11µM	-
CCC(C)NC(=O)C(=O)Nc1c2c(nn1-c1ccccc1)CS(=O)(=O)C2 (centres undefined)	-	-	-	.	-	.

High-throughput results: PubChem BioAssay, National Center for Advancing Translational Sciences (NCATS)
